The source of these data is US20080280877A1, “Azetidines” (Pfizer Inc, priority 2007, published 2008).

Chains of the proteins cited; added tags and fusions are not shown.
UniProt P43116, whole entry: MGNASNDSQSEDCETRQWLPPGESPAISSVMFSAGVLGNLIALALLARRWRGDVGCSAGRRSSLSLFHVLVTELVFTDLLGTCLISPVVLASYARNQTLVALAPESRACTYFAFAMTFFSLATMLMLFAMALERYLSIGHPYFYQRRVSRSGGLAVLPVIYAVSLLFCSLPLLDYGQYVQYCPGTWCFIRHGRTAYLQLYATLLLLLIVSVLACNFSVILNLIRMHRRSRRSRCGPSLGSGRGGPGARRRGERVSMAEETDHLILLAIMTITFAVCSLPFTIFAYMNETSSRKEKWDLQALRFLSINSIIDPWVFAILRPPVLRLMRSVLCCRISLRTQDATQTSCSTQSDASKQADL

The target in the assay is recombinant human EP-2 receptor (Homo sapiens, UniProt P43116). Description: in vitro antagonist potency against recombinant human EP-2 receptor in CHO cells (cAMP, Protocol 1). The class given is cell-based. As to conditions: read-out: EP2 Ki; functional Ki by Cheng-Prusoff from IC50; CHO cells stimulated with PGE2 (5 nM); cAMP readout.

Molecules are shown by their SMILES.

`COc1ccc(-c2ccc(OCC3(C(=O)O)CN(C(=O)c4ccc(F)cc4)C3)cc2)cc1`: the Ki (commonly the dissociation constant of the complex between target and ligand, obtained from inhibition or displacement) is 2 nM.

With `O=C(C1CCC(F)(F)CC1)N1CC(COc2ccc(-c3ccc(F)cc3)cc2)(C(=O)O)C1`, the inhibitory constant (Ki) turned out to be 71.3 nM.

As for `N#Cc1ccc(-c2ccc(OCC3(C(=O)O)CN(C(=O)C4CCOCC4)C3)cc2)cc1`, the Ki was 388 nM.

As for `O=C(c1ccc(F)cc1)N1CC(COc2ccc(-c3ccc(F)c(F)c3)cc2)(C(=O)O)C1`, the Ki is 4.9 nM.

Turning to `O=C(C1CCC(F)(F)CC1)N1CC(COc2ccc(-c3ccc(Cl)cn3)cc2)(C(=O)O)C1`, the Ki is 192 nM.

Turning to `O=C(c1ccc(F)cc1)N1CC(COc2ccc(-c3ccccc3)cc2)(C(=O)O)C1`, the Ki came to 21.2 nM.

`N#Cc1ccc(-c2ccc(OCC3(C(=O)O)CN(C(=O)C4CCC(F)(F)CC4)C3)cc2)cc1`: the Ki is 24.7 nM.

On to `O=C(C1CCOCC1)N1CC(COc2ccc(-c3ccc(Cl)cc3)cc2)(C(=O)O)C1`, for which the inhibition constant (Ki) came to 824 nM.

For `O=C(Nc1cccc(Cl)c1Cl)N1CC(COc2cccc(Cl)c2)(C(=O)O)C1`, the inhibitory constant (Ki) was 707 nM.
